Laboratory results as given in patent US6872574B2, “Proteomic analysis” (The Scripps Research Institute, priority 2000, dated 2005).

Tested on: trypsin
Test: Biotinylated FP labeling of protease, SDS-PAGE and avidin blotting
Assay type: binding

Question: With “10-(fluoroethoxyphosphinyl)-N-(biotinamidopentyl)-decanamide” as the substance, how does the labeling of trypsin read?
Answer: reacted strongly with free trypsin
